The values that follow come from patent US9278960B2, “Quinoline carboxamide and quinoline carbonitrile derivatives as mGluR2-negative allosteric modulators, compositions, and their use” (Merck Sharp & Dohme Corp., priority 2011, dated 2016).

Amino acid sequences for entries named in this document (tags omitted). Residues count along the entry.
UniProt Q14416, 19-872: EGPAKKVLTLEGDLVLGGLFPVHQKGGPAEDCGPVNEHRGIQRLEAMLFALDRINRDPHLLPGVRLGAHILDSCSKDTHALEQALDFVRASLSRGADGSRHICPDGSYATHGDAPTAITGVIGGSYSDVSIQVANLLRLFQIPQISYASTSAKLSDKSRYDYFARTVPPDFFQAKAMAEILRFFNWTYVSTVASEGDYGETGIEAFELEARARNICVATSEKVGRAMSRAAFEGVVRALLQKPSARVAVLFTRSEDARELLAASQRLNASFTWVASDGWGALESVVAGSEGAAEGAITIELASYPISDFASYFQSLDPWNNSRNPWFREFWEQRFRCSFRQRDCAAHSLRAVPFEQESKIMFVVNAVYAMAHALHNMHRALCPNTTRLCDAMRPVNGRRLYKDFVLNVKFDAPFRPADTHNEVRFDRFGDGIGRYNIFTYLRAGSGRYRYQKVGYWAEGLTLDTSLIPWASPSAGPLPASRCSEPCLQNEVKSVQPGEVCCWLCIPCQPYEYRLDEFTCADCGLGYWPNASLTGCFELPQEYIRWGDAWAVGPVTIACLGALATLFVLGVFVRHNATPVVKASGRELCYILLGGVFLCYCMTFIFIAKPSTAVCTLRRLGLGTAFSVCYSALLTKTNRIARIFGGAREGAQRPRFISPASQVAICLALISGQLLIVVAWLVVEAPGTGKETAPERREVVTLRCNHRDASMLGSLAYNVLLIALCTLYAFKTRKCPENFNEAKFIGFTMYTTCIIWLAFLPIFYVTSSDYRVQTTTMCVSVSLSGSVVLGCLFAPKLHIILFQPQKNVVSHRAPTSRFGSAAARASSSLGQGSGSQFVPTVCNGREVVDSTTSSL

This assay concerns the target human mGluR2 (Homo sapiens (Human), UniProt Q14416). The experiment in a line: FLIPR Ca2+ mobilization antagonist assay in CHO dhfr- cells expressing recombinant human mGluR2 and Gα16. It counts as cell-based. As to conditions: antagonist response after addition of 2,500 nM glutamate, Fluo-4 AM, FLIPR384. (In general: A change in cytosolic calcium serves as a functional read-out for many receptors and channels.)

Molecules are shown by their SMILES.

As a reminder, the IC50 is the concentration needed to halve the response being measured. For the compound `Cn1cc(-c2cc(C(N)=O)nc3cc(CN4CCCC(F)C4)ccc23)cn1` (stereo not drawn) [Example 4-72, 7-[(3-fluoropiperidin-1-yl)methyl]-4-(1-methyl-1H-pyrazol-4-yl)quinoline-2-carboxamide], the concentration for half-maximal inhibition (IC50) came to 243 nM.
As to `CC1CN(Cc2ccc3c(-c4ccc(F)cc4)cc(C(N)=O)nc3c2)CC(C(F)(F)F)N1` (stereo not drawn) [Example 4-112, 4-(4-fluorophenyl)-7-{[3-methyl-5-(trifluoromethyl)piperazin-1-yl]methyl}quinoline-2-carboxamide], the half-inhibitory concentration (IC50) came out at 23 nM.
As for `Cc1ncc(-c2cc(C(N)=O)nc3cc(CN4CCOC(C(F)(F)F)C4)ccc23)o1` (stereo not drawn) [Example 4-81, 4-(2-methyl-1,3-oxazol-5-yl)-7-{[2-(trifluoromethyl)morpholin-4-yl]methyl}quinoline-2-carboxamide], the IC50 turned out to be 1630 nM.
For the compound `CCC(O)(c1cn(Cc2ccc3c(-c4ccc(OC)c(F)c4)cc(C(N)=O)nc3c2)cn1)C(F)(F)F` (stereo not drawn) [Example 3-49, 4-(3-fluoro-4-methoxyphenyl)-7-({4-[1-hydroxy-1-(trifluoromethyl)propyl]-1H-imidazol-1-yl}methyl)quinoline-2-carboxamide], the IC50 came out at 16 nM.
To `NC(=O)c1cc(-c2ccc(F)cc2)c2ccc(CN3CCNC(C4CC4)C3)cc2n1` (stereo not drawn) [Example 4-110, 7-[(3-cyclopropylpiperazin-1-yl)methyl]-4-(4-fluorophenyl)quino-line-2-carboxamide] belongs 90 nM; to `COc1ncc(Cc2ccc3c(-c4cnn(C)c4)cc(C(N)=O)nc3c2)cn1` [Example 6-19, 7-[(2-methoxypyrimidin-5-yl)methyl]-4-(1-methyl-1H-pyrazol-4-yl)quinoline-2-carboxamide], 41 nM; to `NC(=O)c1cc(-c2ccc(F)cc2)c2ccc(Cc3ccc(CO)nc3)c(F)c2n1` [Example 7-26, 8-fluoro-4-(4-fluorophenyl)-7-{[6-(hydroxymethyl)pyridin-3-yl]methyl}quinoline-2-carboxamide], 15 nM.
Consider `Cn1cc(-c2cc(C(N)=O)nc3cc(CN4CCOCC4(C)C)ccc23)cn1` [Example 4-57, 7-[(3,3-dimethylmorpholin-4-yl)methyl]-4-(1-methyl-1H-pyrazol-4-yl)quinoline-2-carboxamide], for which the 50% inhibitory concentration (IC50) was determined as 237 nM.
To `NC(=O)c1cc(-c2ccc(F)cc2)c2ccc(Cn3cc(C(O)C4CC4)cn3)cc2n1` (stereo not drawn) [Example 3-10, 7-({4-[Cyclopropyl(hydroxy)methyl]-1H-pyrazol-1-yl}methyl)-4-(4-fluorophenyl)quinoline-2-carboxamide] belongs 63 nM; to `CCOC(=O)c1cnn(Cc2ccc3c(-c4ccc(F)cc4)cc(C(N)=O)nc3c2)c1` [Example 3-21, ethyl 1-{[2-carbamoyl-4-(4-fluorophenyl)quin-olin-7-yl]methyl}-1H-pyrazole-4-carboxylate], 40 nM; to `COc1ccc(-c2cc(C(N)=O)nc3cc(C(O)Cc4ccc(Cl)nc4)ccc23)cc1` (stereo not drawn) [Example 8-20, 7-[2-(6-chloropyridin-3-yl)-1-hydroxyethyl]-4-(4-methoxyphenyl) quinoline-2-carboxamide], 12 nM.
To `NC(=O)c1cc(-c2ccc(F)cc2)c2ccc(CN3CCS(=O)(=O)CC3)cc2n1` [Example 4-42, 7-[(1,1-dioxidothiomorpholin-4-yl)methyl]-4-(4-fluorophenyl)quino-line-2-carboxamide] belongs 56 nM; to `Cc1nc2ccccc2n1Cc1ccc2c(-c3ccc(F)cc3)cc(C(N)=O)nc2c1` [Example 3-42, 4-(4-fluorophenyl)-7-[(2-methyl-1H-benzimidazol-1-yl)methyl]quinoline-2-carboxamide], 46 nM; to `COc1ccc(-c2cc(C(N)=O)nc3cc(C(C)Cc4cccnc4)ccc23)c(F)c1` (stereo not drawn) [Example 8-45, 4-(2-fluoro-4-methoxyphenyl)-7-(1-methyl-2-pyridin-3-ylethyl)quinoline-2-carboxamide], 10 nM.
On to `Cc1ccc(-c2cc(C(N)=O)nc3cc(C)ccc23)cc1` [Example 1-25, 7-methyl-4-(4-methylphenyl)quinoline-2-carboxamide], for which the 50% inhibitory concentration (IC50) came to 407 nM.
